For the assay, the system named is SERT promoter (5-HTTLPR alleles). Nature of the assay: DRL (dual luciferase reporter) assay, SERT promoter activity of 5-HTTLPR alleles in RN46A cells. It counts as cell-based. To be noted: 100 μM berberine. The text has this:
The PCR reaction to amplify the 5-HTTLPR alleles for sequencing and creation of reporter constructs contained primers different than those used for the genotyping experiment.
These primers amplify a larger region of 5-HTTLPR making it more useful to determine promoter strength. The primer sequences were described previously and are as follows: Forward primer 5′-[…]-3′ (SEQ ID NO:25) and Reverse primer 5′-[…]-3′ (SEQ ID NO:26) (Hu et al., Am J Hum Genet (2006) 78(5):815-826). The PCR products of the six 5-HTTLPR alleles (S, LG, LA, XS, XL-17, and XL-18) were subcloned into the TOPO TA cloning vector pCR2.1-TOPO (Invitrogen) and transformed to One Shot TOP10 competent E. coli cells according to the manufacturer's instructions. In the case of individuals heterozygous for 5-HTTLPR, resulting transformants were screened for the presence of the correct insert using the restriction enzyme EcoR I.
The resulting constructs, created and sequenced, in the pCR2.1-TOPO vector (S, LG, LA, XS, XL-17, and XL-18 alleles) were subcloned to the luciferase reporter vector pGL4.10 [luc2] (Promega) using standard molecular techniques. Additionally, each allele was cloned into pGL4.10 [luc2] in the backwards orientation to ensure that transcriptional effects were the result of consensus promoter sequences. […] The co-transfection with the 5-HTTLPR pGL4.10 constructs (firefly luciferase) and the pRL-SV40 vector (renilla luciferase) to the RN46A raphe-derived cell line using Lipofectamine 2000 (Invitrogen) was described previously. Expression was measured using the Dual-Luciferase Reporter Assay System (Promega) 24 h after transfection with passive lysis buffer.
Relative light units (RLU) for both the firefly and renilla luciferase was measured using a 20/20^n Luminometer (Turner Biosystems, Sunnyvale Calif. 94085) and the ratio between the firefly RLU to renilla RLU in each sample was determined. The values were all normalized to the (S) allele.

Structures are written as SMILES.

With `COc1ccc2cc3[n+](cc2c1OC)CCc1cc2c(cc1-3)OCO2.[Cl-]` [berberine, Berberine (Chloride Form)], the “increase of SERT promoter activity vs vehicle” value reads like this: (LA allele) 100.4%; (LG allele) 106.9%; (S allele) 67%; (XL17 allele) 26.2%; (XL18 allele) 82%; (XS allele) 128.7%.

Source of the values: patent US20110281852A1 (priority 2010, published 2011).
